Source: patent US10351591B2, “Polypeptides, peptides, and proteins functionalized by alkylation of thioether groups via ring-opening reactions” (The Regents of the University of California, priority 2015, dated 2019)

What was measured:
[1] = potent nucleophile 2-mercaptopyridine; 37° C., 24 h
[2] = Poly(S-alkyl-L-methionine) stability studies in aqueous buffers; format: physicochemical; settings: aqueous buffers ranging in pH from 5 to 9; 37° C., 24 h; S-alkyl-Met/Met ratio by 1H NMR
Experimental: The mixture was incubated on a 37° C. H2O bath for 24 h. […] The retentate was lyophilized.

Poly(S-(2-hydroxy-4,7,10,13-tetraoxatetradecyl)-L-methionine sulfonium chloride) [compound 8]
stability against dealkylation by nucleophile [1]: quite stable
stability in aqueous buffers [2]: good stability
